# Yeast mating assay 1: variants of the scFv Ab-14

Target: peptide PDVDLGDISGINAS, taken from heptad repeat 2 (HR2) of SARS-CoV-2 spike.

Parent: Ab-14, a human scFv built as VH, the linker GGGGSGGGGSGGGGS, VL. Only the CDRs of the light chain vary.
VH: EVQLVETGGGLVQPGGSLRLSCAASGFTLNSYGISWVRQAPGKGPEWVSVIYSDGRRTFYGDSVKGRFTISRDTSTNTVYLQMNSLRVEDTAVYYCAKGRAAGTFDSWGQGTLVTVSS
VL: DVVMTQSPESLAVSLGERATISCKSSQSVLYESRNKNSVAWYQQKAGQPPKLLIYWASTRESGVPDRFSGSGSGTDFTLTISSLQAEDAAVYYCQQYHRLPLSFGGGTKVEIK

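Phage display of a naive human antibody library on the peptide gave the parent. The library (AAYL50) carries one to three amino acid substitutions per variant, with no insertions or deletions. In AlphaSeq, yeast of one mating type display the scFv and yeast of the other type display the target. The frequency of each diploid, read from paired DNA barcodes, reflects how well the two displayed proteins bind. Read counts were normalised to the haploid input and turned into Kd by a linear fit to BCL2-family pairs of known affinity, for each replicate. Each pool was mated in three replicate cultures.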

Positions count from residue 1 of the parent VL; L30D puts D in place of L.
This list gathers variants with a substitution at A57 (VL, numbered from residue 1).
Each Kd is an estimate from the mating assay, the geometric mean of the replicates in which the pair was seen; lower is stronger.
Where no diploid with the target was found in any replicate, the entry reads "nd": below detection, most likely a poor binder, though not proof of it.
Entries are sorted by rising average, undetected variants last.
Three control strains display no target. For library AAYL50, 18% of the pairings with them gave a signal, with a median of 15 µM and one signal in twenty below 970 nM, so weak values seen in few replicates may be background. Also given: how often the same scFv was detected with the empty control strains.
Parent in this assay: reference entry 4.4 nM, copy in this library 48 nM.

Variant L30D+A57G+S62C showed 3.3 nM (3 of 3 replicates; controls 0 of 9). Variant S33E+N35D+A57T showed 8.1 nM (3 of 3 replicates; controls 3 of 9). For S28R+A57G+R99C, the assay gave 11 nM (3 of 3 replicates; controls 0 of 9). With E32C+W56E+A57D the result was 55 nM (3 of 3 replicates; controls 1 of 9). For S28A+A57D+Q96H, the assay gave 63 nM (3 of 3 replicates; controls 4 of 9). With N37A+A57M+Y97N the result was 140 nM (2 of 3 replicates; controls 0 of 9). For Q27L+A57D+Y97H, the assay gave 170 nM (3 of 3 replicates; controls 1 of 9).

With K36D+A57K the result was 3.5 µM (3 of 3 replicates; controls 2 of 9). Variant E32M+A57Q+T59V showed 3.9 µM (3 of 3 replicates; controls 3 of 9). Variant E32I+A57Q+T59Q showed 5.1 µM (1 of 3 replicates; controls 0 of 9). With S38L+A57Y+Q95L the result was 5.3 µM (1 of 3 replicates; controls 1 of 9). With R34L+A57Q+L100C the result was 11 µM (1 of 3 replicates; controls 1 of 9). Variant K24V+A57C gave 20 µM (2 of 3 replicates; controls 1 of 9). Variant A40N+A57G+E61D showed 37 µM (2 of 3 replicates; controls 5 of 9).

Variant A57I+Q95D+Q96W showed 39 µM (2 of 3 replicates; controls 0 of 9). For K24V+Y31K+A57M, the assay gave 47 µM (3 of 3 replicates; controls 5 of 9). For A57P+Y97L+L100S, the assay gave 83 µM (3 of 3 replicates; controls 2 of 9). For S38W+A57W+S103Y, the assay gave 140 µM (2 of 3 replicates; controls 7 of 9). For N35D+A57P+L102P, the assay gave 190 µM (1 of 3 replicates; controls 1 of 9). For A57Q+R60A+L102F, the assay gave 1.3 mM (1 of 3 replicates; controls 1 of 9). For A57W+R60F+S103C, the assay gave nd (0 of 3 replicates; controls 1 of 9).

Variant Q27M+A57L+L102Y gave nd (0 of 3 replicates; controls 2 of 9). Variant K36Y+A57V gave nd (0 of 3 replicates; controls 1 of 9). For A40K+A57E+L102V, the assay gave nd (0 of 3 replicates; controls 0 of 9). Variant A57Q+S62D+S103N gave nd (0 of 3 replicates; controls 0 of 9). Variant S33H+A57Q+R60L showed nd (0 of 3 replicates; controls 0 of 9). With A57C+S58M the result was nd (0 of 3 replicates; controls 0 of 9). Variant A40F+A57E+L100N showed nd (0 of 3 replicates; controls 0 of 9).

Variant Q27P+A57N+Y97S gave nd (0 of 3 replicates; controls 0 of 9). Variant E32W+A57Y+S103F gave nd (0 of 3 replicates; controls 0 of 9). Variant A57F+H98S+P101K showed nd (0 of 3 replicates; controls 0 of 9).

Extract of 3 entries:

changes	Kd	replicates with signal	empty controls
L30D+A57G+S62C	3.3 nM	3 of 3	0 of 9
N35D+A57P+L102P	190 µM	1 of 3	1 of 9
A40K+A57E+L102V	nd	0 of 3	0 of 9

The measurements come from Engelhart et al. 2022 (doi:10.1038/s41597-022-01779-4) through the FLAb antibody collection.